The values below are quoted from earlier work in patent US6589223B1, “Method and compositions for use in perfusion applications” (BioTime, Inc., priority 1999, dated 2003).

The conditions of this series: artificial oncotic agents; Messmer (1989).

As to dextran 70, the intravascular persistence rates is 6 h. As for dextran 40, the intravascular persistence rates is 2 to 3 h.
